A short description of series [1]: Human liver microsome stability assay. The following applies: human liver microsomes, NADPH, 37 °C. The procedure: The human liver microsome stability assay was performed by co-incubating the compounds with human liver microsomes in vitro. Test compounds were first prepared as 10 mM stock solutions in DMSO solvent, followed by dilution of the compounds to 0.5 mM using acetonitrile. Human liver microsomes (Corning) were diluted with PBS to form a microsome/buffer solution, and 0.5 mM compound was diluted with this solution to form a working solution with a compound concentration of 1.5 µM and a human liver microsome concentration of 0.75 mg/mL. A deep-well plate was used, and 30 µL of the working solution was added to each well. Subsequently, 15 µL of pre-warmed 6 mM NADPH solution was added to start the reaction, and the plate was incubated at 37 °C. Reactions were terminated by adding 135 µL of acetonitrile to the corresponding wells at 0, 5, 15, 30, and 45 min of incubation. After the reaction was terminated with acetonitrile at the last 45 min time point, the deep-well plate was vortexed for 10 min (600 rpm/min) and then centrifuged for 15 min. The supernatant was collected after centrifugation, and purified water was added at a ratio of 1:1 for LC-MS/MS analysis to obtain the ratio of peak area of compound to peak area of internal standard at each time point. The peak area ratios of the compounds at 5, 15, 30, and 45 min were compared with the peak area ratio thereof at 0 min, and the remaining percentage of compounds at each time point was calculated. T1/2 was calculated using Graphpad 5 software. Table 8. Human liver microsome stability data for the compounds

Sequences of proteins named here, by UniProt entry; tags and fusion partners are left off.
UniProt Q96LB1, whole entry: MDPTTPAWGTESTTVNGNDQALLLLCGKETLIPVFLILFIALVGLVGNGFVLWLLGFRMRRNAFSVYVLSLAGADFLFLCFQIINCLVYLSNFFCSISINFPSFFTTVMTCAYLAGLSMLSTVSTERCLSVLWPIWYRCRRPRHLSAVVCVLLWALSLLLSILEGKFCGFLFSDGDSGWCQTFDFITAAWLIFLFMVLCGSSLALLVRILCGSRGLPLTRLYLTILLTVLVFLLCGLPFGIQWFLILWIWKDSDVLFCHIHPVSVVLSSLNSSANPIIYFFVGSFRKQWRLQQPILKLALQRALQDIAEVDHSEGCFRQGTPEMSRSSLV

Series [2] concerns the target T1, human MRGPRX2 (Homo sapiens, UniProt Q96LB1). In words: MRGPRX2 in vitro IP-1 assay. The following applies: CHO stably-transfected cell line highly expressing human MRGPRX2; agonist Cortistatin-14; IP-1 readout 665 nm/620 nm. On the procedure: The antagonistic effect of the compounds on MRGPRX2 was determined in a CHO stably-transfected cell line that highly expresses human MRGPRX2. The drugs prepared by serial dilution with DMSO were added to a micropore plate, and the stably-transfected cells were treated with trypsin. The cells were collected, counted, and then seeded into the microplate, and the microplate was incubated at 37 °C for 10 min. Cortistatin-14 solution at a specific concentration was added, and the cells were centrifuged and then incubated at 37 °C for 60 min. After the incubation was completed, diluted d2-IP1 and Anti-IP 1-Cryptate were added to each well. The cells were centrifuged and then left to stand at room temperature for 1 h. After the incubation was completed, the fluorescence readings at 665 nm and 620 nm were obtained. The concentration of the compound was plotted on the X-axis, and the fluorescence signal ratio was plotted on the Y-axis. The antagonistic effect (IC50 value) of the compound was calculated using Graphpad software. Table 2: MRGPRX2 IP-1 assay results

A short description of series [3]: Pharmacokinetic assay in rats. Conditions: oral intragastric administration, 10 mg/kg, plasma. On the procedure:
Pharmacokinetic assay in rats was performed, and the rats used were male SD rats weighing 180-240 g and fasted overnight. Three rats were used, and oral intragastric administration was performed at a dose of 10 mg/kg. Blood was collected before administration and at 15 min, 30 min and 1 h, 2 h, 4 h, 8 h, and 24 h after administration. The blood samples were centrifuged at 6800 g at 2-8 °C for 6 min, and plasma was collected and stored at -80 °C. The plasma at each time point was taken, and 3-5 times its amount of an acetonitrile solution containing an internal standard was added for mixing. The mixture was vortexed for 1 min and then centrifuged at 13000 rpm at 4 °C for 10 min. The supernatant was taken, and 3 times its amount of water was added for mixing. An appropriate amount of the resulting mixture was taken for LC-MS/MS analysis. The major pharmacokinetic parameters were analyzed using a non-compartmental model in the WinNonlin 7.0 software. Table 5. Results of pharmacokinetic assay in rats

In series [4] the target is T1, human MRGPRX2. In words: MRGPRX2 in vitro calcium flux assay. The following applies: CHO stably-transfected cell line highly expressing human MRGPRX2; agonist C48/80; FLIPR fluorescence. The procedure:
The antagonistic effect of the compounds on MRGPRX2 was determined in a CHO stably-transfected cell line that highly expresses human MRGPRX2. 18 h before the assay, cells were seeded in a black-wall transparent base plate containing DMEM/F12 (1:1) medium at a specific density and incubated at 37 °C with 5% CO2 for 18 h. Then, an appropriate amount of dye solution was added to each well, and the cells were incubated for another 30 min in the incubator at 37 °C in the dark. The cells were further incubated for 10 min at room temperature in the dark. Subsequently, the compounds at different final concentrations were added to each well and equilibrated for 20 min. Finally, a certain amount of C48/80 solution was added to the cells, and fluorescence signals were measured using FLIPR. The concentration of the compound was plotted on the X-axis, and the fluorescence signal value was plotted on the Y-axis. The antagonistic effect (IC50 value) of the compound was calculated using GraphPad Prism 8.0 software. A denotes an IC50 value ≤ 100 nM, B denotes 100 nM < IC50 value ≤ 500 nM, and C denotes an IC50 value greater than 500 nM.

We go through two molecules from patent EP4821925A2, “MRGPRX2 ANTAGONIST AND USE THEREOF” (dated 2026).

With `COc1ccc(C(=O)NC2CCC(Nc3cc(C(F)(F)F)c(=O)n(C)n3)CC2)cc1` (stereo not shown), the “Half-life (T1/2, min)” value in series [1] was 370 min. This molecule also registered an IC50 on human MRGPRX2 [2] of 70 nM. In series [3], the “AUC0-t” value is 36630 ng·h/mL and the “Cmax” value came to 3176 ng/mL. The concentration for half-maximal inhibition (IC50) at human MRGPRX2 [4] is under 100 nM.
As to `Cn1nc(N[C@H]2CC[C@@H](NC(=O)c3cn(CC(F)(F)F)nc3Cl)CC2)cc(C(F)(F)F)c1=O`, the “Half-life (T1/2, min)” value in series [1] turned out to be 482 min. The IC50 on human MRGPRX2 [2] stood at 99 nM. Besides, in series [3], the “AUC0-t” value worked out at 76414 ng·h/mL and the “Cmax” value amounted to 8730 ng/mL. The IC50 on human MRGPRX2 [4] is under 100 nM.
